According to US20060159681A1 (FUNCTIONAL NEUROSCIENCE, published 2006):

Columns and labels:
[1] = biological target: T1, endogenous Hsp70 in human brain lysate (human); assay: GST pull-down from human brain SNpc lysate
T1 construct: Native protein in tissue lysate, detected with a monoclonal anti-Hsp70 antibody

His-parkin = biological target: T2, His-parkin (human, UniProt O60260); assay: in vitro GST pull-down
T2 construct: Purified from E. coli; also called recombinant N-terminus His-tagged parkin; not shown: N-terminal hexa-histidine tag from vector pDEST17
Procedure: (§1) Samples were harvested in lysis-buffer (50 mM Tris-HCl pH 7.4, 150 mM NaCl, 2 mM EDTA, 1% Triton X-100) supplemented with protease inhibitors (Roche). For complete solubilization of the pellet in synphilin ubiquitinylation experiments boiling lysis-buffer with 1% SDS was used. IPs were performed overnight followed by incubation with Protein G sepharose beads (Amersham). PDAs were performed with equimolar amounts of GST- and His-fusion proteins for 1 hr (4° C.). Beads were washed once with lysis-buffer and three times with PBS (pH 7.4).
To further examine the nature of the association between parkin, Hsp70 and BAG5, in vitro pull-down experiments using GST-Hsp70, GST-BAG5, or GST-BAG5(DARA) with recombinant N-terminus His-tagged parkin were used. […] Thus, BAG5 interacted directly with parkin in the absence of Hsp70.

His-Hsp70 = biological target: T3, His-Hsp70 (human); assay: in vitro GST pull-down, equimolar GST- and His-fusion proteins
T3 construct: Purified from E. coli (pDEST17) for the pull-down assays; also called full-length Hsp70; not shown: N-terminal hexa-histidine tag from a pDEST vector
Procedure: as §1
To identify the region of Hsp70 which mediates the interaction with BAG5, His-Hsp70 deletion constructs containing only the ATPase Domain (ATPase) or Protein Binding Domain (PBD) of Hsp70 were constructed. Both GST-BAG5 and GST-BAG1, but not GST-alone, pulled down the Hsp70 ATPase domain in vitro. […] Therefore, the ATPase domain of Hsp70 was both necessary and sufficient for the interaction between BAG5 and Hsp70.

- binding result [1]: no binding
- binding result (His-parkin): no binding
- binding result (His-Hsp70): no binding
B1: GST-alone (other, UniProt P08515 1-218, looked up)
chain: MSPILGYWKIKGLVQPTRLLLEYLEEKYEEHLYERDEGDKWRNKKFELGLEFPNLPYYIDGDVKLTQSMAIIRYIADKHNMLGGCPKERAEISMLEGAVLDIRYGVSRIAYSKDFETLKVDFLSKLPEMLKMFEDRLCHKTYLNGDHVTHPDFMLYDALDVVLYMDPMCLDAFPKLVCFKKRIEAIPQIDKYLKSSKYIAWPLQGWQATFGGGDHPPK
notes: Negative control of the pull-down assays
